Experimental data reported in PubChem BioAssay AID588664 (The Scripps Research Institute Molecular Screening Center, 2011).
The list shows a part of the results, in another mix than the full data. Some salts or complexes appear as unconnected parts, following the source record. The source made the active and inactive calls. Cut-off read from the data, not from the text of the source: active = inhibition above about 5% (passing the limit was not always enough); inactive = the rest.

Protein sequences, listed by entry. Tags and fused reporters are not part of them.
UniProt P00519, whole entry, looked up: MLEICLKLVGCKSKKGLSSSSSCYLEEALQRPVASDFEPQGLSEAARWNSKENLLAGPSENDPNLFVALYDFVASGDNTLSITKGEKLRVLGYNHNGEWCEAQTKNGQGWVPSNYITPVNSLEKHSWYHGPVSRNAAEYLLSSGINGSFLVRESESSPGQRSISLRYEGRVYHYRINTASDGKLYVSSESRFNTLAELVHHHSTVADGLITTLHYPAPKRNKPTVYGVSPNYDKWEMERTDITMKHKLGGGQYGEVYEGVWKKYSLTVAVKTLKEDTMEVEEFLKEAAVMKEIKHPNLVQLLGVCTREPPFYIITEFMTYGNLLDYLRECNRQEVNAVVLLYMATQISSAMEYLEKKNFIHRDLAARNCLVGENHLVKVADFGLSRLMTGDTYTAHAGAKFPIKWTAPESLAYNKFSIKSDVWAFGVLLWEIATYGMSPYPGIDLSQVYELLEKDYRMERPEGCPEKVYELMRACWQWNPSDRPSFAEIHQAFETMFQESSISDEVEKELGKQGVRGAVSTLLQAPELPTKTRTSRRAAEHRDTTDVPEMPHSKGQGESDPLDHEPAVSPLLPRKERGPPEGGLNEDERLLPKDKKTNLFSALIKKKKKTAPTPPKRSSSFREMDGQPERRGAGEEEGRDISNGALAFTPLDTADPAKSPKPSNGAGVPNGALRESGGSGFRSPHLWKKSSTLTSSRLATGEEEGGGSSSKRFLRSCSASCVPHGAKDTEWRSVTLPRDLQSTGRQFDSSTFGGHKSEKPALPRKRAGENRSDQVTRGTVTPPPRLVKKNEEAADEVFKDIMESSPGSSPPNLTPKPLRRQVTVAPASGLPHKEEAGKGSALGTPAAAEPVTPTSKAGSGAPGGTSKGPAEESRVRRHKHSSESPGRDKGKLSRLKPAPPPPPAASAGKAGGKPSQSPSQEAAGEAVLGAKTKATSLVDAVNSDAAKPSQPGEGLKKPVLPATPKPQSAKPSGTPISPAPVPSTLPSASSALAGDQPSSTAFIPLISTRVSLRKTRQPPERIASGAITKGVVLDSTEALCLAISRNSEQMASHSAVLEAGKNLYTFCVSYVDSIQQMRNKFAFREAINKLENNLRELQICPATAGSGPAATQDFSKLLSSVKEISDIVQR
UniProt Q13671, whole entry, looked up: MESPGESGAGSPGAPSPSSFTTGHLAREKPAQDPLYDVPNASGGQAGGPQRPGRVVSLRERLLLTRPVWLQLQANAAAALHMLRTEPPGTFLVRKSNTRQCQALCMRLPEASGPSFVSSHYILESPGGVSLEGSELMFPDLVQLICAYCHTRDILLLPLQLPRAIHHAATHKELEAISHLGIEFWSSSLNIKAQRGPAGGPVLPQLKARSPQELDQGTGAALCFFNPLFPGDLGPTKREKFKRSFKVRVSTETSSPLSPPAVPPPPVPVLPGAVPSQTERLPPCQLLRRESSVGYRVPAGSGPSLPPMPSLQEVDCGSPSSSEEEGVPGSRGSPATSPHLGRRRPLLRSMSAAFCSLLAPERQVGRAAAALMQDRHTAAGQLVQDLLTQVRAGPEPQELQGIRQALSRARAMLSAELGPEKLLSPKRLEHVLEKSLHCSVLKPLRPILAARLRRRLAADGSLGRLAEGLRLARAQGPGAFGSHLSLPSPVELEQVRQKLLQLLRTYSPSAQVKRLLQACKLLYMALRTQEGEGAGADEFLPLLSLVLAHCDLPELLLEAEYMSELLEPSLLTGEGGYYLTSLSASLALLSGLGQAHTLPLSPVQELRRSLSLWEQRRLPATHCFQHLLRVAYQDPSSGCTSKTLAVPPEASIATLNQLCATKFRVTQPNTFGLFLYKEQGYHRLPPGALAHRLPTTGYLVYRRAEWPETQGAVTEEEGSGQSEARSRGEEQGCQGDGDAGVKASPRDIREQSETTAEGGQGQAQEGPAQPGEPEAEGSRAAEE

The compounds below were run against Tyrosine-protein kinase ABL1 (Homo sapiens) + Ras and Rab interactor 1 (Homo sapiens) (UniProt P00519+Q13671) (assay: inhibitors of Rin1-Abl protein binding, primary screen, biochemical, TR-FRET (AID 588664)). Conditions: at 7.35 µM, hits give high values.

SMILES | inhibition
Cc1c(NP(C)(=O)Oc2ccc(C(C)C)cc2)c(=O)n(-c2ccccc2)n1C (centres undefined) | inactive: -0.29%
O=[N+]([O-])c1cc([N+](=O)[O-])c(Nc2ccccn2)c([N+](=O)[O-])c1 | inactive: -1.68%
CCc1ccc(OP(C)(=O)O)cc1 | inactive: -2.55%
COc1ccccc1OP(C)(=O)Nc1ccc(C)cc1C (centres undefined) | inactive: -0.04%
CP(=O)(Nc1ccccn1)Oc1ccccc1 (centres undefined) | inactive: 2.15%
COc1ccccc1OP(C)(=O)Nc1ccc(Br)cc1 (centres undefined) | inactive: -3.65%
CN(C)CCOC(=O)C(O)(c1ccccc1)C1CCCC1 (centres undefined) | inactive: -1.24%
COc1ccc(OP(C)(=O)Nc2ccccn2)cc1 (centres undefined) | inactive: 0.97%
CCCCCCCCCCCCCCCC1C[N+](C)(C)CCOP(C)(=O)O1 (centres undefined) | inactive: 2.66%
CP(=O)(Nc1ccc(Cl)cc1Cl)Oc1ccccc1 (centres undefined) | inactive: 1.64%
CP(=O)(OCCOc1ccccc1)OCCOc1ccccc1 | inactive: 3.44%
Cc1cc(C)cc(OP(C)(=O)Nc2cccc(C(F)(F)F)c2)c1 (centres undefined) | inactive: -2.23%
O=C1C(O)=C([N+](=O)[O-])C(=O)C(O)=C1[N+](=O)[O-] | inactive: 5.54%
COc1ccc(OP(C)(=O)Nc2ccccc2Br)cc1 (centres undefined) | inactive: 0.43%
COc1ccccc1OP(C)(=O)Nc1ccc(C)c(C)c1 (centres undefined) | inactive: -0.2%
CCN(CC)CCCOC(=O)C(O)(c1ccccc1)C1CCCCC1 (centres undefined) | inactive: 3.72%
Cc1c([N+](=O)[O-])cc([N+](=O)[O-])c(Br)c1[N+](=O)[O-] | inactive: -0.64%
CCCCCOc1ccc(NP(C)(=O)Oc2ccc(Cl)cc2Cl)cc1 (centres undefined) | inactive: 0.45%
O=[N+]([O-])c1cc([N+](=O)[O-])c(OC2CCCCC2O)c([N+](=O)[O-])c1 (centres undefined) | inactive: -1.31%
CP(=O)(Nc1ccccc1)Oc1ccc(F)cc1 (centres undefined) | inactive: -0.48%

SMILES | inhibition
COc1ccc(OP(C)(=O)Nc2ccc(SC(F)(F)F)cc2)cc1 (centres undefined) | inactive: -0.15%
CCOC(=O)c1ccc(NP(C)(=O)Oc2ccc(F)cc2)cc1 (centres undefined) | inactive: -3.33%
O=C(OCCN1CCN(CCOCc2ccccc2)CC1)C(O)(c1ccccc1)c1ccccc1 | inactive: 1.89%
O=C(OC1CN2CCC1CC2)c1ccc([N+](=O)[O-])cc1 (centres undefined) | inactive: 6.03%
COc1ccc2c(c1O)-c1c(O)c(OC)cc3c1[C@H](C2)[N+](C)(C)CC3.O=[N+]([O-])c1cc([N+](=O)[O-])c([O-])c([N+](=O)[O-])c1[O-] | inactive: 2.21%
O=[N+]([O-])c1cc([N+](=O)[O-])c(Nc2ccc(Cl)cc2)c([N+](=O)[O-])c1 | inactive: -5.52%
CC(C)c1ccc(OP(C)(=O)Nc2ccc(SC(F)(F)F)cc2)cc1 (centres undefined) | inactive: 1.58%
CP(=O)(Nc1ccccc1F)Oc1ccccc1 (centres undefined) | inactive: -0.78%
CP(=O)(Nc1ccc2c(c1)OCCO2)Oc1ccccc1 (centres undefined) | inactive: -0.36%
Cc1ccccc1NP(C)(=O)Nc1ccccc1C | inactive: 1.39%
CP(=O)(Nc1ccc(SC(F)(F)F)cc1)Oc1ccc(F)cc1 (centres undefined) | inactive: 4.39%
CCOP(C)(=S)SCC(=O)NC(C)(CC)C(=O)O (centres undefined) | inactive: 4.74%
Cc1cc(-c2cccc3ccccc23)c(C)cn1.O=[N+]([O-])c1cc([N+](=O)[O-])c(O)c([N+](=O)[O-])c1 | inactive: -0.51%
O=[N+]([O-])c1cc([N+](=O)[O-])c(NCC2CCS(=O)(=O)C2)c([N+](=O)[O-])c1 (centres undefined) | inactive: -0.6%
O=[N+]([O-])c1ccc(OP2(=O)COCCO2)cc1 (centres undefined) | inactive: 3.24%
Cc1c(C(c2ccc3c(c2)OCO3)c2c(C)n(C)n(-c3ccccc3)c2=O)c(=O)n(-c2ccccc2)n1C.O=[N+]([O-])c1cc([N+](=O)[O-])c(O)c([N+](=O)[O-])c1 | inactive: 1.44%
COc1ccc(OP(C)(=O)Nc2cccc(Br)c2)cc1 (centres undefined) | inactive: 5.57%
COc1ccc(NP(C)(=O)Oc2ccccc2OC)cc1 (centres undefined) | inactive: 3.48%
CN(C)CCOC(=O)C(O)(c1ccccc1)C1CCCCC1 (centres undefined) | inactive: -1.59%
